Results on one molecule are retold here after publication PMC11859423, “Fluorescent Probes to Image the KCa3.1 Channel in Tumor Cells” (Pharmaceutics, 2025).

Assay [1] has as its system KCa3.1 channels. In words: Block of KCa3.1 channels (literature IC50 values). Type of assay: biochemical. The settings on record: from literature IC50 values.
In assay [2] the test system is KCa3.1 channels. As to conditions: read-out: IC50 to block KCa3.1 channels; cited from earlier work.

In the case of `Clc1ccccc1C(c1ccccc1)(c1ccccc1)n1cccn1` [TRAM-34], the “fold more potent than clotrimazole to block KCa3.1 channels” value in the assay with KCa3.1 channels [1] is recorded as 5–10 fold. Moreover, the IC50 with KCa3.1 channels [2] is 20 nM.

As usually defined, the IC50 is the concentration at which inhibition is half-maximal.
